Results as given in PubChem BioAssay AID504462 (Sanford-Burnham Center for Chemical Genomics, 2011).
The list shows a part of the results, in another mix than the full data. Some salts and complexes are drawn in separate pieces, as the source files them; their charges need not balance. The source made the active and inactive calls. Rule as the data show it: active = inhibition above about 40%; inactive = the rest.

Chains of the proteins cited; added tags and fusions are not shown.
UniProt Q9Y4P1, whole entry: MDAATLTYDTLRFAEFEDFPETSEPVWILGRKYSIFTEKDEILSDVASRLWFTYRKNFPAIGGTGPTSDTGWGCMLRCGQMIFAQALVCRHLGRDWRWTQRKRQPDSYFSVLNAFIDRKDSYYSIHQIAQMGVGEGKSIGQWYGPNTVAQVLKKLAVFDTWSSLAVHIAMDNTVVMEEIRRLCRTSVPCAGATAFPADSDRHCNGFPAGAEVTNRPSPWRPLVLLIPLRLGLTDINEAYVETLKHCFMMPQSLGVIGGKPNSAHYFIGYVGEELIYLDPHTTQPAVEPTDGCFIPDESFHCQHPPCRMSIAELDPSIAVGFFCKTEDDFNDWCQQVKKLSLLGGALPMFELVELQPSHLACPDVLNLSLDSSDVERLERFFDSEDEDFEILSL

Each compound was assayed against Cysteine protease ATG4B (Homo sapiens) (UniProt Q9Y4P1) (assay: blockers of ATG4B cysteine protease activity – biochemical, fluorescence, uHTS, primary screen (AID 504462)). Settings: ATG4B cleavage of LC3-PLA2, NBD-HPC fluorescence, 1 h; at 8.33 µM; hits give high values.
`Nc1ccc2c(ccc3cccnc32)n1.O=[N+]([O-])c1cc([N+](=O)[O-])c(O)c([N+](=O)[O-])c1` was tested, and the inhibition was inactive: -7.82%.
In the case of `CCOC(=O)c1ccc(NP(C)(=O)Oc2ccc(Cl)cc2)cc1` (stereo not drawn), the inhibition is reported as inactive: -7.79%.
For `CP(=O)(OC12CC3CC(CC(C3)C1)C2)OC12CC3CC(CC(C3)C1)C2`, the inhibition was inactive: -5.26%.
In the case of `COc1ccccc1OP(C)(=O)Nc1ccccc1Br` (stereo not drawn), the inhibition is reported as inactive: 0.79%.
With `CC(C)(C)c1ccc(OP(C)(=O)O)cc1` the inhibition was inactive: 2.26%.
In the case of `CP(=O)(Nc1ccc(Cl)cc1)Oc1ccc(F)cc1` (stereo not drawn), the inhibition is reported as inactive: -0.73%.
`CN(C)C(=O)c1c([N+](=O)[O-])cc([N+](=O)[O-])cc1[N+](=O)[O-]` was tested, and the inhibition was inactive: -3.29%.
For `COc1ccc(OP(C)(=O)Nc2ccc(Br)cc2)cc1` (stereo not drawn), the inhibition was inactive: 0.25%.
With `CCN(CC)CC(O)COC(=O)C(O)(c1ccccc1)C1CCCCC1` (stereo not drawn) the inhibition was inactive: -3.4%.
With `O=C(OCCCN1CCCC1)C(O)(c1ccccc1)C1CCCCC1` (stereo not drawn) the inhibition was inactive: 6.77%.
With `COc1ccccc1OP(C)(=O)Nc1c(C)n(C)n(-c2ccccc2)c1=O` (stereo not drawn) the inhibition was inactive: -9.11%.
In the case of `CCc1ccc(OP(C)(=O)Nc2cccnc2)cc1` (stereo not drawn), the inhibition is reported as inactive: 6.75%.
`CP(=O)(Oc1ccccc1)N1CCOC1=O` (stereo not drawn) was tested, and the inhibition was inactive: -9.67%.
In the case of `Cc1c(NP(C)(=O)Oc2ccc(C(C)C)cc2)c(=O)n(-c2ccccc2)n1C` (stereo not drawn), the inhibition is reported as inactive: -12.3%.
With `O=[N+]([O-])c1cc([N+](=O)[O-])c(Nc2ccccn2)c([N+](=O)[O-])c1` the inhibition was inactive: -6.27%.
With `COc1ccccc1OP(C)(=O)Nc1ccc(C)cc1C` (stereo not drawn) the inhibition was inactive: -7.74%.
For `CP(=O)(Nc1ccccn1)Oc1ccccc1` (stereo not drawn), the inhibition was inactive: -3.22%.
For `CCc1ccc(OP(C)(=O)O)cc1`, the inhibition was inactive: -7.86%.
`COc1ccccc1OP(C)(=O)Nc1ccc(Br)cc1` (stereo not drawn) was tested, and the inhibition was inactive: 8.06%.
In the case of `COc1ccc(OP(C)(=O)Nc2ccccn2)cc1` (stereo not drawn), the inhibition is reported as inactive: -3.84%.
`CN(C)CCOC(=O)C(O)(c1ccccc1)C1CCCC1` (stereo not drawn) was tested, and the inhibition was inactive: -1.58%.
In the case of `CCCCCCCCCCCCCCCC1C[N+](C)(C)CCOP(C)(=O)O1` (stereo not drawn), the inhibition is reported as inactive: 36.4%.
`CP(=O)(Nc1ccc(Cl)cc1Cl)Oc1ccccc1` (stereo not drawn) was tested, and the inhibition was inactive: 4.77%.
For `CP(=O)(OCCOc1ccccc1)OCCOc1ccccc1`, the inhibition was inactive: -1.56%.
`Cc1cc(C)cc(OP(C)(=O)Nc2cccc(C(F)(F)F)c2)c1` (stereo not drawn) was tested, and the inhibition was inactive: 11.6%.
In the case of `O=C1C(O)=C([N+](=O)[O-])C(=O)C(O)=C1[N+](=O)[O-]`, the inhibition is reported as inactive: -0.89%.
In the case of `COc1ccccc1OP(C)(=O)Nc1ccc(C)c(C)c1` (stereo not drawn), the inhibition is reported as inactive: 1.05%.
`COc1ccc(OP(C)(=O)Nc2ccccc2Br)cc1` (stereo not drawn) was tested, and the inhibition was inactive: 2.02%.
For `Cc1c([N+](=O)[O-])cc([N+](=O)[O-])c(Br)c1[N+](=O)[O-]`, the inhibition was inactive: 5.57%.
`CCN(CC)CCCOC(=O)C(O)(c1ccccc1)C1CCCCC1` (stereo not drawn) was tested, and the inhibition was inactive: -8.11%.
`CP(=O)(Nc1ccccc1)Oc1ccc(F)cc1` (stereo not drawn) was tested, and the inhibition was inactive: 2.73%.
With `CCCCCOc1ccc(NP(C)(=O)Oc2ccc(Cl)cc2Cl)cc1` (stereo not drawn) the inhibition was inactive: -0.86%.
With `O=[N+]([O-])c1cc([N+](=O)[O-])c(OC2CCCCC2O)c([N+](=O)[O-])c1` (stereo not drawn) the inhibition was inactive: 4.29%.
For `CCOC(=O)c1ccc(NP(C)(=O)Oc2ccc(F)cc2)cc1` (stereo not drawn), the inhibition was inactive: 13.6%.
With `COc1ccc(OP(C)(=O)Nc2ccc(SC(F)(F)F)cc2)cc1` (stereo not drawn) the inhibition was inactive: -9.02%.
`O=C(OC1CN2CCC1CC2)c1ccc([N+](=O)[O-])cc1` (stereo not drawn) was tested, and the inhibition was inactive: -5.44%.
In the case of `O=C(OCCN1CCN(CCOCc2ccccc2)CC1)C(O)(c1ccccc1)c1ccccc1`, the inhibition is reported as inactive: -9.74%.
With `COc1ccc2c(c1O)-c1c(O)c(OC)cc3c1[C@H](C2)[N+](C)(C)CC3.O=[N+]([O-])c1cc([N+](=O)[O-])c([O-])c([N+](=O)[O-])c1[O-]` the inhibition was inactive: -3.68%.
In the case of `CP(=O)(Nc1ccccc1F)Oc1ccccc1` (stereo not drawn), the inhibition is reported as inactive: 7.42%.
With `CC(C)c1ccc(OP(C)(=O)Nc2ccc(SC(F)(F)F)cc2)cc1` (stereo not drawn) the inhibition was inactive: -4.74%.
In the case of `CP(=O)(Nc1ccc2c(c1)OCCO2)Oc1ccccc1` (stereo not drawn), the inhibition is reported as inactive: -2.9%.
For `Cc1ccccc1NP(C)(=O)Nc1ccccc1C`, the inhibition was inactive: -10.2%.
For `CP(=O)(Nc1ccc(SC(F)(F)F)cc1)Oc1ccc(F)cc1` (stereo not drawn), the inhibition was inactive: -8.3%.
In the case of `CCOP(C)(=S)SCC(=O)NC(C)(CC)C(=O)O` (stereo not drawn), the inhibition is reported as inactive: -1.1%.
For `O=[N+]([O-])c1ccc(OP2(=O)COCCO2)cc1` (stereo not drawn), the inhibition was inactive: 0.05%.
`O=[N+]([O-])c1cc([N+](=O)[O-])c(NCC2CCS(=O)(=O)C2)c([N+](=O)[O-])c1` (stereo not drawn) was tested, and the inhibition was inactive: -6.14%.
For `Cc1cc(-c2cccc3ccccc23)c(C)cn1.O=[N+]([O-])c1cc([N+](=O)[O-])c(O)c([N+](=O)[O-])c1`, the inhibition was inactive: 3.81%.
For `Cc1c(C(c2ccc3c(c2)OCO3)c2c(C)n(C)n(-c3ccccc3)c2=O)c(=O)n(-c2ccccc2)n1C.O=[N+]([O-])c1cc([N+](=O)[O-])c(O)c([N+](=O)[O-])c1`, the inhibition was inactive: 3.9%.
`COc1ccc(OP(C)(=O)Nc2cccc(Br)c2)cc1` (stereo not drawn) was tested, and the inhibition was inactive: -9.68%.
With `CN(C)CCOC(=O)C(O)(c1ccccc1)C1CCCCC1` (stereo not drawn) the inhibition was inactive: 9.43%.
`COc1ccc(NP(C)(=O)Oc2ccccc2OC)cc1` (stereo not drawn) was tested, and the inhibition was inactive: -9.12%.
`CN1CCCCC1COC(=O)C1(O)c2ccccc2CCc2ccccc21` (stereo not drawn) was tested, and the inhibition was inactive: -3.66%.
With `COc1ccccc1OP(C)(=O)Nc1c(C)cccc1C` (stereo not drawn) the inhibition was inactive: -0.46%.
With `CCCOc1ccc(NP(C)(=O)Oc2ccc(Cl)cc2)cc1` (stereo not drawn) the inhibition was inactive: -2.49%.
In the case of `CP(=O)(Nc1ccc(SC(F)(F)F)cc1)Oc1ccccc1` (stereo not drawn), the inhibition is reported as inactive: -1.55%.
For `CCOC(=O)C(CC)C1=NC(C)(C)Cc2ccccc21.O=[N+]([O-])c1cc([N+](=O)[O-])c(O)c([N+](=O)[O-])c1` (stereo not drawn), the inhibition was inactive: -3.82%.
For `CC1=C2N=C(C=C3N=C(C(C)=C4[N-][C@@](C)([C@@H]5N=C1[C@](C)(CCC(=O)NC[C@@H](C)OP(=O)([O-])O[C@H]1[C@@H](O)[C@@H](n6cnc7cc(C)c(C)cc76)O[C@@H]1CO)[C@H]5CC(N)=O)[C@@](C)(CC(N)=O)[C@@H]4CCC(N)=O)[C@@](C)(CC(N)=O)[C@@H]3CCC(N)=O)C(C)(C)[C@@H]2CCC(N)=O.[C-]#N.[Co+3]`, the inhibition was inactive: 0.86%.
In the case of `O=[N+]([O-])c1cc([N+](=O)[O-])c(Nc2nnnn2CCO)c([N+](=O)[O-])c1`, the inhibition is reported as inactive: -0.99%.
`O=[N+]([O-])c1cc([N+](=O)[O-])c(-c2cnn(-c3ccccc3)c2)c([N+](=O)[O-])c1` was tested, and the inhibition was inactive: -10.4%.
For `Cc1nc2ccc3ccccc3c2s1.O=[N+]([O-])c1cc([N+](=O)[O-])c(O)c([N+](=O)[O-])c1`, the inhibition was inactive: -13.6%.
In the case of `O=[N+]([O-])c1cc([N+](=O)[O-])c(-n2nnc3ccccc32)c([N+](=O)[O-])c1`, the inhibition is reported as inactive: -7.91%.
For `Cc1ccc(C)c(NP(C)(=O)Oc2ccccc2)c1` (stereo not drawn), the inhibition was inactive: 2.66%.
For `Cc1cc(C)cc(OP(C)(=O)Nc2ccccn2)c1` (stereo not drawn), the inhibition was inactive: -7.69%.
With `CP(=O)(Nc1cccc(Br)c1)Oc1ccccc1` (stereo not drawn) the inhibition was inactive: 7.32%.
For `COc1ccccc1OP(C)(=O)Nc1cccc(Br)c1` (stereo not drawn), the inhibition was inactive: 3.8%.
`CCOC(=O)c1ccc(NP(C)(=O)Oc2cc(C)cc(C)c2)cc1` (stereo not drawn) was tested, and the inhibition was inactive: -14.4%.
For `Cc1cc(C)cc(OP(C)(=O)Nc2ccc(C)cc2C)c1` (stereo not drawn), the inhibition was inactive: -0.96%.
With `CC1=NCCc2c1[nH]c1ccccc21.O=[N+]([O-])c1cc([N+](=O)[O-])c(O)c([N+](=O)[O-])c1` the inhibition was inactive: -6.69%.
For `O=C(O)c1cccc(Nc2c([N+](=O)[O-])cc([N+](=O)[O-])cc2[N+](=O)[O-])c1`, the inhibition was inactive: 3.37%.
In the case of `Cc1ccc(NP(C)(=O)Oc2ccccc2)c(C)c1` (stereo not drawn), the inhibition is reported as inactive: -1.74%.
For `COc1ccccc1OP(C)(=O)Nc1ccc(C)cc1` (stereo not drawn), the inhibition was inactive: -0.52%.
`CCOC(=O)c1ccc(NP(C)(=O)Oc2ccccc2)cc1` (stereo not drawn) was tested, and the inhibition was inactive: -4.29%.
With `Cc1cc(C)cc(OP(C)(N)=O)c1` (stereo not drawn) the inhibition was inactive: -3.08%.
For `COc1ccc(OP(C)(=O)Nc2cccc(F)c2)cc1` (stereo not drawn), the inhibition was inactive: 3.7%.
In the case of `COc1ccccc1OP(C)(=O)Nc1cc(Cl)ccc1C` (stereo not drawn), the inhibition is reported as inactive: 9.05%.
With `O=[N+]([O-])c1cc([N+](=O)[O-])c(Nc2cccnc2)c([N+](=O)[O-])c1` the inhibition was inactive: 4.19%.
With `O=[N+]([O-])c1ccc2c(c1)C=Nc1ccccc1O2` the inhibition was inactive: -10.4%.
`Cc1cccc(C)c1OP(C)(N)=O` (stereo not drawn) was tested, and the inhibition was inactive: 3.41%.
For `CC(C)(C)c1ccc(OP(C)(=O)Nc2ccc(SC(F)(F)F)cc2)cc1` (stereo not drawn), the inhibition was inactive: 5.2%.
`CCN(CC)CCCOC(=O)C(O)(c1ccccc1)c1ccccc1` was tested, and the inhibition was inactive: -0.89%.
`O=[N+]([O-])c1cc([N+](=O)[O-])c(O)c([N+](=O)[O-])c1.c1ccc(Oc2ccncc2)cc1` was tested, and the inhibition was inactive: -5.97%.
With `CCOC(=O)c1ccc(NP(C)(=O)Oc2ccc(OC)cc2)cc1` (stereo not drawn) the inhibition was inactive: -6.24%.
In the case of `CCOP(C)(=S)SCC(=O)NC(C)C(=O)O` (stereo not drawn), the inhibition is reported as inactive: 9.13%.
In the case of `CP(=O)(Nc1ccccn1)Oc1ccc(Cl)cc1` (stereo not drawn), the inhibition is reported as inactive: -3.53%.
In the case of `CP(=O)(Oc1ccccc1)OC(c1ccccc1)C(F)(F)F` (stereo not drawn), the inhibition is reported as inactive: -5.86%.
In the case of `CP(=O)(Nc1ccc(SC(F)(F)F)cc1)Oc1ccc(Cl)cc1` (stereo not drawn), the inhibition is reported as inactive: 3.44%.
For `Cc1cccc(C)c1OP(C)(=O)Nc1ccc(SC(F)(F)F)cc1` (stereo not drawn), the inhibition was inactive: -5.75%.
`Cc1cc(C)cc(OP(C)(=O)Nc2ccc(SC(F)(F)F)cc2)c1` (stereo not drawn) was tested, and the inhibition was inactive: 10.7%.
In the case of `CP(=O)(NC(=O)Nc1ccccc1)Oc1ccccc1` (stereo not drawn), the inhibition is reported as inactive: 0.87%.
For `CCc1ccc(OP(C)(=O)N2CCN(c3ccc([N+](=O)[O-])cc3)CC2)cc1` (stereo not drawn), the inhibition was inactive: -24.1%.
`CP(=S)(Nn1cnnc1)Oc1ccccc1` (stereo not drawn) was tested, and the inhibition was inactive: -3.26%.
For `CP(=O)(Nc1ccccc1Br)Oc1ccccc1` (stereo not drawn), the inhibition was inactive: 4.69%.
`COc1ccccc1OP(C)(=O)Nc1ccccc1` (stereo not drawn) was tested, and the inhibition was inactive: -6.15%.
